Assays:
[1] = tested on: human breast MDA-MB-231 tumor cell line; experiment: Tumor cell growth assay (Cell Titer Glo); format: cell-based; settings: 72 hours, read-out: IC50 μM against MDA-MB-231
[2] = tested on: human colorectal HT-29 tumor cell line; experiment: Tumor cell growth assay (Cell Titer Glo); format: cell-based; settings: 72 hours, read-out: IC50 μM against HT-29

Cc1ccc(-c2cc(C(F)(F)F)nn2-c2ccc(S(N)(=O)=O)cc2)cc1 [Celecoxib, reference compound]
IC50 [1]: > 50 µM | IC50 [2]: 26.5 µM

From US9388139B2, “Derivatives of celeboxib, use thereof and preparation thereof” (German University, priority 2011, dated 2016)
